Measured values: ChEMBL document CHEMBL3596142, “Recent trends in orexin research--2010 to 2015” (Bioorg Med Chem Lett, 2015)

Chains of the proteins cited; added tags and fusions are not shown.
UniProt O43613, whole entry: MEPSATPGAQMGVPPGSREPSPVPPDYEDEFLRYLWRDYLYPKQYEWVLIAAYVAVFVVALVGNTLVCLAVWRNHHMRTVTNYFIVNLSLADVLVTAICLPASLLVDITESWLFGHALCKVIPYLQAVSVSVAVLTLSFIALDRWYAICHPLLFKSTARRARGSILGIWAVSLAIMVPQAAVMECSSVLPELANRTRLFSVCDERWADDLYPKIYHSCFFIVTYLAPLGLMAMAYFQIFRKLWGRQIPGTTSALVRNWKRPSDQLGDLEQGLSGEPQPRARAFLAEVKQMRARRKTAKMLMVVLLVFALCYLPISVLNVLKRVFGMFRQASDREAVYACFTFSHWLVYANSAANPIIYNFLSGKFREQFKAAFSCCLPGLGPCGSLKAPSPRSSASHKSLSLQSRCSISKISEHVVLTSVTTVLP

Biological target: Orexin/Hypocretin receptor type 1 (Homo sapiens, UniProt O43613)
Test: Displacement of [3H]-(l-(5-(2-fluoro-phenyl)-2-methyl-thiazol-4-yl)-l-((S)-2-(5-phenyl-(l,3,4)oxadiazol-2-ylmethyl)-pyrrolidin-l-yl)-methanone from human orexin-1 receptor expressed in CHO cells after 60 mins by scintillation counting analysis
Type: cell-based

## Cc1cc(C)nc(N2CC3CN(C(=O)c4c(F)cccc4-n4nccn4)CC3C2)n1 (stereo unspecified) [SELTOREXANT]
  Ki: 1.28 µM
